Target: T1, inducible NO synthase (NOS2) (Homo sapiens, UniProt P35228)
T1 construct: endogenous in cells; host or cells: normal human keratinocytes (primary culture), induced with interferon-gamma and interleukin 1-beta
Test: screening test of the modulation of induction of NOS2 by normal human keratinocytes (nitrite and nitrate measurement)
Format: cell-based
Conditions: control compound at 200 μm; cytokine-induced normal human keratinocytes
Method: The activity of N,N′-bis-(3,4,5-trimethoxybenzyl) ethylenediamine-diacetic acid on the inducible NO synthase was evaluated in the assay described by Heck et al. (J.B.C., vol. 267, No. 30, 21277-21280, 25 Oct. 1992), a screening test of the modulation of induction of NOS2 by normal human keratinocytes. The objective of this test is, briefly, to evaluate the concentration of nitrate and nitrite after stimulation of the NO-synthase 2.
The test is carried out on a culture of normal human keratinocytes, derived from samples taken. The induction of the inducible NO synthase (NOS2) was caused by the addition of a combination of several cytokines to the culture medium. The product tested was applied at three concentrations varying from 10 to 1000 μM.
The product tested was classed in one of the following two categories: inhibitor (I) or donor (D) of NO (nitric oxide) according to its capacity to diminish or increase, respectively, the quantity of nitrites and nitrates produced compared to the control signal […].
The following controls were introduced in the test: […]
In order to determine the activity of the test product the quantity of stable NO reaction products (nitrites and nitrates) is measured with the aid of the “nitric colorimetric assay” kit sold by the Boehringer company under catalogue number 1756.28. […]

The chains behind the UniProt entries cited, without tags or fusion partners.
UniProt P35228, whole entry: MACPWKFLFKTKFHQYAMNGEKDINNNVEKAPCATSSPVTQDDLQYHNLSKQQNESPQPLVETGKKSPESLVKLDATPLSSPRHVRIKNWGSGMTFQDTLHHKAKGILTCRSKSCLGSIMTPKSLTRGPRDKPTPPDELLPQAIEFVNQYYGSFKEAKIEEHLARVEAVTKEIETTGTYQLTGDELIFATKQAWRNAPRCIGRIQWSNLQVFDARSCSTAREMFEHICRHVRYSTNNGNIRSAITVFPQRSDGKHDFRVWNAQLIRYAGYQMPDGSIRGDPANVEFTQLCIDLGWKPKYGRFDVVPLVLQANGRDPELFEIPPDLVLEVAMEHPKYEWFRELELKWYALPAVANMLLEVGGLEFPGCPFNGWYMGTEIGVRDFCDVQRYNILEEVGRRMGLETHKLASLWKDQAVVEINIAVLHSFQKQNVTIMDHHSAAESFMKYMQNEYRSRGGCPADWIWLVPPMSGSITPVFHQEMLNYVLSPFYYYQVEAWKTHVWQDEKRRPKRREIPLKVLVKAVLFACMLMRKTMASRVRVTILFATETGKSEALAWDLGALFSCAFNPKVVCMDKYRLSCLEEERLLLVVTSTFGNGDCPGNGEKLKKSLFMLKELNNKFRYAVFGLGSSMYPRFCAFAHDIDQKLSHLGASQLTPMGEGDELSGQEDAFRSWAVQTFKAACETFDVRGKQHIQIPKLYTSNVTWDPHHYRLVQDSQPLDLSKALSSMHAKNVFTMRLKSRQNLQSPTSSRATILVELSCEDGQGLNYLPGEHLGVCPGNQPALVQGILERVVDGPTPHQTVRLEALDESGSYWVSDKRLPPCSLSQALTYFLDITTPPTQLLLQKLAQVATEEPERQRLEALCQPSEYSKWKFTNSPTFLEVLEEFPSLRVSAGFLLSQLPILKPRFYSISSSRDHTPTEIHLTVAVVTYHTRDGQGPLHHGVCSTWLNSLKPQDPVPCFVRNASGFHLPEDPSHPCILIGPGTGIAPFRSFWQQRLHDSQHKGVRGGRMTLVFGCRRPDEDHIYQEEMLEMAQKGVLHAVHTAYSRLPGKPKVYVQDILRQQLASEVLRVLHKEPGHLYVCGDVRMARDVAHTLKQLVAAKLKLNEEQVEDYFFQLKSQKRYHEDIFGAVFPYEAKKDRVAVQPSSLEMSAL

SMILES | % inhibition [%]
CNC(=N)NCCC[C@H](N)C(=O)O [B, N^9-monomethyl-L-arginine (L form), reference compound] | 100
CNC(=N)NCCC[C@@H](N)C(=O)O [C, N^9-monomethyl-L-arginine (D form), reference compound] | 0

— US20040228889A1, “Use of N-arylmethylene ethylenediaminetriacetates, N-arylmethylene iminodiacetated or N,N'-diarylmethylene ethylenediamineacetates as doners of NO” (L'OREAL S.A., priority 2003, published 2004)
